Source: ChEMBL document CHEMBL2218924, “A broad activity screen in support of a chemogenomic map for kinase signalling research and drug discovery” (Biochem J, 2013)
For part of these data: Most of the strong results are listed elsewhere, so they are rarer here than in the full data. Only a part is listed here, and it is no random draw.

Chains of the proteins cited; added tags and fusions are not shown. Lines headed by an entry give the natural chain unless they say otherwise; changes in a name come on top.
UniProt Q9HCP0: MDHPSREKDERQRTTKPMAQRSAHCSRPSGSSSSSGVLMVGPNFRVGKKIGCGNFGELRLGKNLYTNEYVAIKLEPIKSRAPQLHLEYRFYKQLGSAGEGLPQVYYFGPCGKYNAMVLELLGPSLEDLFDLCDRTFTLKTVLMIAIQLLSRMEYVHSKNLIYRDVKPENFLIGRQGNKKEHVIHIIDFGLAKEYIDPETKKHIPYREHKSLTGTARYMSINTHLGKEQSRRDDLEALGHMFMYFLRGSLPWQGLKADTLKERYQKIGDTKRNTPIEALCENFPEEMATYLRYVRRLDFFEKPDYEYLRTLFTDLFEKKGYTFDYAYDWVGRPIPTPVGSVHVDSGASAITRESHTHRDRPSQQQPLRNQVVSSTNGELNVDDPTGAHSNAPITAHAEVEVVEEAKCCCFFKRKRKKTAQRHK
UniProt O75676: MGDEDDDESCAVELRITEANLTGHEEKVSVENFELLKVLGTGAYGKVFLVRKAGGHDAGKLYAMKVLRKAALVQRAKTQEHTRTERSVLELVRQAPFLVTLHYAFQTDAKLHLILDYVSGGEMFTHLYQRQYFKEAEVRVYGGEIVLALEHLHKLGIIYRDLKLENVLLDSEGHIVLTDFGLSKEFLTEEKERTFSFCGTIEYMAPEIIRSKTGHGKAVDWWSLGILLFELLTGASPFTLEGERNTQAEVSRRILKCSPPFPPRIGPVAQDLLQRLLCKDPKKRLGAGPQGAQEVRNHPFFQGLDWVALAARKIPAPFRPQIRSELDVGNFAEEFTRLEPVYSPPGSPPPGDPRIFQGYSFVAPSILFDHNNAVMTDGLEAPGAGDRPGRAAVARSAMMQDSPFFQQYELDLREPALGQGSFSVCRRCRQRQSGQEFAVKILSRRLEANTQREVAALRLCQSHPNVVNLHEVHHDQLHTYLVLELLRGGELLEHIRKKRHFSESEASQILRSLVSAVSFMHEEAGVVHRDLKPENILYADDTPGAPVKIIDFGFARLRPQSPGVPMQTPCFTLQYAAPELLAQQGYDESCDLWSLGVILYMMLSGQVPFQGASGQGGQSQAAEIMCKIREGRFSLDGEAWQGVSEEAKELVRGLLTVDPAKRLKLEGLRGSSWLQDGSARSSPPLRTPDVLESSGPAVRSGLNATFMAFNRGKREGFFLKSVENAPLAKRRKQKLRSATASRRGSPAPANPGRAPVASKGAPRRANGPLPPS
UniProt Q00535, whole entry, looked up: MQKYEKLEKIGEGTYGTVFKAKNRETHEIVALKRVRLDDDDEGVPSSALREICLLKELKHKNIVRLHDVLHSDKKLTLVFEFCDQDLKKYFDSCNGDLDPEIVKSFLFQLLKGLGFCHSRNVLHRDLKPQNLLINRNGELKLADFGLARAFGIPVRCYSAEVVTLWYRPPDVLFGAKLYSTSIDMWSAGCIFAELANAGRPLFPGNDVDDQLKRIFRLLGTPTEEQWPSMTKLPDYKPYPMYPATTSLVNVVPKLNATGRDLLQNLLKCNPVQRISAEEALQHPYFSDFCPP
UniProt Q15078: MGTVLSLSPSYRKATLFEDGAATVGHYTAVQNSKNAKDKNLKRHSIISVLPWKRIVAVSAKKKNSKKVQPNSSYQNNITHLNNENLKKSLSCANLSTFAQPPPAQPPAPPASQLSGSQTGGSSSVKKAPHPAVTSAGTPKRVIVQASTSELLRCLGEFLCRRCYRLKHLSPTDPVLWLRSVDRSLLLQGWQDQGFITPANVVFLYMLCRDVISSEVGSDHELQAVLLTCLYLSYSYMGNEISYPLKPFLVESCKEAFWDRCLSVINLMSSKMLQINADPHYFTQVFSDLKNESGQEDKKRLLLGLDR
UniProt Q8N4C8: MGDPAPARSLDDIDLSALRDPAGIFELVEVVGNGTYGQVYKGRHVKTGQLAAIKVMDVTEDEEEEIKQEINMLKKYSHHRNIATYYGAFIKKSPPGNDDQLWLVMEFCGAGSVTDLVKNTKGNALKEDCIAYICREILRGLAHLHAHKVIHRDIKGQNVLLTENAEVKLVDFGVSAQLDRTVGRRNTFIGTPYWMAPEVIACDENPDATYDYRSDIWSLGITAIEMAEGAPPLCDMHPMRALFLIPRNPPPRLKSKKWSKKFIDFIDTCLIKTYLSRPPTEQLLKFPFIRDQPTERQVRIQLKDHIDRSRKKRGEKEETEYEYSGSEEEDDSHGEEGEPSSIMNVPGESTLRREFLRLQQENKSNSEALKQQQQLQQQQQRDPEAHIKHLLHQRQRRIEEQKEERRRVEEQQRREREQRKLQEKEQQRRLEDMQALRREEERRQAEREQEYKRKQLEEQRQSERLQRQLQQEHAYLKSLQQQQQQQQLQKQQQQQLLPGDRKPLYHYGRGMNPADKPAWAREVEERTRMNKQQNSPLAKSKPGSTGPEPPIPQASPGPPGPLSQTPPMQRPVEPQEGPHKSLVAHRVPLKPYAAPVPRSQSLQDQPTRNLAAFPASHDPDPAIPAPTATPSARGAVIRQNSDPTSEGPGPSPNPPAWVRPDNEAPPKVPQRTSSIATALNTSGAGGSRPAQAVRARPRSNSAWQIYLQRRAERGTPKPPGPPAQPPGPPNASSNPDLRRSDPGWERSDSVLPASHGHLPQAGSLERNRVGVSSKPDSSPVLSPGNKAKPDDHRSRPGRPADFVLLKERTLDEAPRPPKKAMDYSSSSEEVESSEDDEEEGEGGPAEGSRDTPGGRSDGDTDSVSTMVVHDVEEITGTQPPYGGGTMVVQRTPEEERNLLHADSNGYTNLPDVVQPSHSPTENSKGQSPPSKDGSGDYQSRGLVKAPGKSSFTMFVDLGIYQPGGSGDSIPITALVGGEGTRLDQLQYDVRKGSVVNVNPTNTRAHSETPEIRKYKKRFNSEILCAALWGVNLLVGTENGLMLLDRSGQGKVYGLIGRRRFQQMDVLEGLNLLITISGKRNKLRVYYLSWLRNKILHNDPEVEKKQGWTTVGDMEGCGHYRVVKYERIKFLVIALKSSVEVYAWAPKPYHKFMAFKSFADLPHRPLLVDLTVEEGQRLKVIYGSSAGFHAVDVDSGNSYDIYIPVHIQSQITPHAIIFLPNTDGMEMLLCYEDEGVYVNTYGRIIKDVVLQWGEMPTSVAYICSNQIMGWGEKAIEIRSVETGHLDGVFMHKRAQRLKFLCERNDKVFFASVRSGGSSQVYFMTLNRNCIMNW
UniProt P09619, whole entry: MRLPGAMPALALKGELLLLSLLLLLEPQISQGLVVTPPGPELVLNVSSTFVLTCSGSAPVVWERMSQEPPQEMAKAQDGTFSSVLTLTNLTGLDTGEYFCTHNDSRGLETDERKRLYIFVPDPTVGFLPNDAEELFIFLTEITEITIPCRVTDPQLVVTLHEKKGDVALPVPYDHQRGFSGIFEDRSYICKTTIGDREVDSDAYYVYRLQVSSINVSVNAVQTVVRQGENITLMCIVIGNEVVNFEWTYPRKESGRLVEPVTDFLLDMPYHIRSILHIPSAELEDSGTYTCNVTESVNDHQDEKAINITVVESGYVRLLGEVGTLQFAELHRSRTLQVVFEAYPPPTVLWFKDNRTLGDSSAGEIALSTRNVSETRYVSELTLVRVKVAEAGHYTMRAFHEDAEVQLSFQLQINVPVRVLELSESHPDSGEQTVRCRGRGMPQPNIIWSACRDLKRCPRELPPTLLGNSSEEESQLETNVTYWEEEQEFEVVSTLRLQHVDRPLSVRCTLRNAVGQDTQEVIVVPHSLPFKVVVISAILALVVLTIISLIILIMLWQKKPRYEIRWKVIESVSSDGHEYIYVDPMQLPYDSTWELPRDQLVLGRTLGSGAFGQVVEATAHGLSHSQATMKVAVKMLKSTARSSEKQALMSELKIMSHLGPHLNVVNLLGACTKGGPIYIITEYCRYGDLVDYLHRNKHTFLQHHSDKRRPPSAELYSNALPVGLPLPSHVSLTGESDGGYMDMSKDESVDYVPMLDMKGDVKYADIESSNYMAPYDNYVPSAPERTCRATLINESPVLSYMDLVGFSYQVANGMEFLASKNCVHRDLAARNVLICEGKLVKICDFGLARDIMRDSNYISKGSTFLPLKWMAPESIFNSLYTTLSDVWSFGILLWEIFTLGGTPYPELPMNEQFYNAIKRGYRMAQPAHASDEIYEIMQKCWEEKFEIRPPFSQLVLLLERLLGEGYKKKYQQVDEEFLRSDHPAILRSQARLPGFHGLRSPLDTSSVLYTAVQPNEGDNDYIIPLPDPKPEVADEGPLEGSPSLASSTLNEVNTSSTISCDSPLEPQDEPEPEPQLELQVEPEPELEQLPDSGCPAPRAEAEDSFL

What was measured:
[1] = target: Casein kinase I isoform gamma-1 (Homo sapiens) (UniProt Q9HCP0); conditions: at 1 µM
[2] = target: T1, Serine/threonine-protein kinase Sgk1 (Homo sapiens) (UniProt O00141); conditions: at 10 µM
T1 sequence (whole entry): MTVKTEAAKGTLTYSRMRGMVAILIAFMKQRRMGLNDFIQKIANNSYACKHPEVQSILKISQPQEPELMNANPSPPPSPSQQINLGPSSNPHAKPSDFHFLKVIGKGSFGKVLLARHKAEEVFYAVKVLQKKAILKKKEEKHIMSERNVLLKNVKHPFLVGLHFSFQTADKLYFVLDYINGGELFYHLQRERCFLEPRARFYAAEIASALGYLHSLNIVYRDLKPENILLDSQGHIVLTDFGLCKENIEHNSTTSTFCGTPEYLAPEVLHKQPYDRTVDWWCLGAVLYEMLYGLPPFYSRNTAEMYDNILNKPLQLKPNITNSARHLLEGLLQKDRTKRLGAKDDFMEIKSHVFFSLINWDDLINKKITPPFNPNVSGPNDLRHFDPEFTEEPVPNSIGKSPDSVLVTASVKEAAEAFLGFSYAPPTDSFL

[3] = target: Ribosomal protein S6 kinase alpha-4 (Homo sapiens) (UniProt O75676); conditions: at 10 µM
[4] = target: Cyclin-dependent kinase 5/CDK5 activator 1 (Homo sapiens) (UniProt Q00535+Q15078); conditions: at 1 µM
[5] = target: Misshapen-like kinase 1 (Homo sapiens) (UniProt Q8N4C8); conditions: at 1 µM
[6] = target: Platelet-derived growth factor receptor beta (Homo sapiens) (UniProt P09619); conditions: at 1 µM

In the case of `Cc1nc2cc3nc(-c4cccs4)cnc3cc2n1C`, the residual activity [1] was 102%, the residual activity [2] was 109% and the residual activity [3] was 108%.

`O=C(O)c1ccc2c3c1cccc3c(=O)n1c3ccccc3nc21` showed a residual activity [4] of 108%, a residual activity [5] of 90% and a residual activity [6] of 111%.
